# The entries are a selection whose mix differs from that of the whole data set. Active and inactive are the calls of the source.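 Rule for the calls: active = percent activation above the screen-wide mean plus 3 SD (cut at about 25% in these data); inactive = the rest.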
# By UniProt entry, the sequences of proteins in these tests, tags left out.
# UniProt P55210, whole entry D23A/D198A/D206A: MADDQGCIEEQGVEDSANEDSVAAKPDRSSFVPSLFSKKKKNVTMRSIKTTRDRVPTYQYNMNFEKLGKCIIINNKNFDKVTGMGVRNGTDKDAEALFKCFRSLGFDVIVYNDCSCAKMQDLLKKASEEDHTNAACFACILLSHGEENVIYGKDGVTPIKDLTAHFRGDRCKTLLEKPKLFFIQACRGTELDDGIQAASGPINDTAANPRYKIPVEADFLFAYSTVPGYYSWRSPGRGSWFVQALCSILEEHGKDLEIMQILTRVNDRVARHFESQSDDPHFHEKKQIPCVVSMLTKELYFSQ
# Molecular target: Caspase-7 (Homo sapiens) (UniProt P55210)
# Assay: activation of procaspase-7 enzyme – biochemical, absorbance, HTS, human, counter-screen for procaspase-3 activator project, primary screen (AID 463210)
# Details: recombinant procaspase-7, Ac-DEVD-pNA absorbance 405 nm; at 8.5 µM; stronger effect = higher value; D23A/D198A/D206A triple mutant, cannot self-cleave; scale: DMSO 0, 5 µM enzyme 100
# How it was run: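 buffer or medium = Zinc-free HEPES/NaCl buffer, pH 7.4 | material = Procaspase-7 triple mutant (PC-7 D3A) | input = 2 µM procaspase-7 mutant as dispensed | signal = Epi-absorbance of released pNA at 405 nm, two timepoints | timing = 1 h preincubation, 2 h reaction | replicates = singlicate compound testing | evaluation = % activation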
row,Compound,activation
1,O=C(NCC1(N2CCCCC2)CCCCC1)c1cccc(C(F)(F)F)c1,inactive: 5.15%
2,COc1cc(C(=O)NCC2(N3CCCCC3)CCCCC2)ccc1OC(F)F,inactive: -13.3%
3,O=C(NCC1(N2CCOCC2)CCCCC1)c1cc(=O)[nH]c2ccccc12,inactive: 24.6%
4,CN1CCN(CCOC(=O)C(O)(c2ccccc2)c2ccccc2)CC1,inactive: 0.14%
5,COc1ccc(NC2CCN(C(=O)OC(C)(C)C)CC2)cc1,inactive: -16%
6,O=C(NCC1(N2CCCCC2)CCCCC1)c1ccc(OC(F)F)cc1,inactive: 2.5%
7,CCN1CCC(Nc2ccc(Cl)cc2)CC1,inactive: 0.02%
8,N#CC1(Nc2ccccc2)CCN(CCc2ccccc2)CC1,inactive: 7.07%
9,O=C(NCC1(N2CCCCC2)CCCCC1)c1cccc([N+](=O)[O-])c1,inactive: 3.11%
10,O=C(NCC1(N2CCCCC2)CCCCC1)c1cncc(Br)c1,inactive: 6.34%
11,CN1CCC(Nc2cccc(F)c2)CC1,inactive: 17.7%
12,CC(C)c1ccc(NC2CCN(C(=O)OC(C)(C)C)CC2)cc1,inactive: -2.28%
13,COc1ccc(CN(CCCl)CCCl)cc1Cl,inactive: 6.2%
14,CN(C)c1cccc(C(=O)NCC2(N3CCCCC3)CCCCC2)c1,inactive: -2.78%
15,COc1cc(OC)c(C(=O)NCC2(N(C)C)CCCCC2)cc1OC,inactive: 2.51%
16,O=C(NCC1(N2CCOCC2)CCCCC1)c1cc(F)c(F)cc1Cl,inactive: 2.39%
17,O=C(NCC1(N2CCCCC2)CCCCC1)c1ccc(Cl)nc1,inactive: 4.33%
18,Cc1cc(C)cc(N(C(=O)c2ccccc2)C2CCN(C(=O)OC(C)(C)C)CC2)c1,inactive: -6.49%
19,O=C(NCC1(N2CCOCC2)CCCCC1)c1cc2ccccc2o1,inactive: -4.31%
20,O=C(OC1CN2CCC1CC2)C1c2ccccc2Oc2ccccc21 (stereo not drawn),inactive: -6.92%
21,N#CC1(Nc2ccccc2)CCN(Cc2ccccc2)CC1,inactive: -0.24%

row,Compound,activation
1,O=C(NCC1(N2CCCCC2)CCCCC1)c1ccc(Cl)s1,inactive: 6.33%
2,COc1ccc(Cl)cc1C(=O)NCC1(N2CCOCC2)CCCCC1,inactive: 0.94%
3,CCOC(=O)N1CCC(Nc2ccc(OC)cc2)CC1,inactive: -10.6%
4,COc1ccc(C(=O)NCC2(N3CCCCC3)CCCCC2)cc1,inactive: 0.01%
5,COc1ccc(C(=O)NCC2(N3CCCCC3)CCCCC2)c(OC)c1OC,inactive: 2.38%
6,CC(C)(C)OC(=O)N1CCC(N(C(=O)c2ccccc2)c2ccc(F)cc2)CC1,inactive: 21.7%
7,O=C(NCC1(N2CCCCC2)CCCCC1)c1ccc(=O)[nH]c1,inactive: 9.63%
8,O=C(NCC1(N2CCCCC2)CCCCC1)c1cccs1,inactive: 8.03%
9,CSc1ccccc1C(=O)NCC1(N2CCCCC2)CCCCC1,inactive: -0.77%
10,CCOC(=O)N1CCC(Nc2cccc(C)c2)CC1,inactive: -7.74%
11,Cc1ccc(OCC(C)C)c(CN(CCCl)CCCl)c1,inactive: -4.1%
12,CCOc1ccc(C)cc1CN(CCCl)CCCl,inactive: -7.36%
13,O=C(NCC1(N2CCCCC2)CCCCC1)c1ccc(F)cc1,inactive: -7.48%
14,COc1ccc(NC2CCN(CCc3ccccc3)CC2)c(OC)c1,inactive: -34.6%
15,CCN1CCC(Nc2cccc(F)c2)CC1,inactive: 0.77%
16,O=C(NCC1(N2CCCCC2)CCCCC1)c1ccco1,inactive: -2.93%
17,CN(C)c1ccc(C(=O)NCC2(N3CCCCC3)CCCCC2)cc1,inactive: -7.15%
18,COc1cc(OC)cc(C(=O)NCC2(N3CCCCC3)CCCCC2)c1,inactive: 12.9%
19,Cc1ccc(C(=O)NCC2(N3CCCCC3)CCCCC2)o1,inactive: -4.54%
20,Fc1ccccc1NC1CCN(Cc2ccccc2)CC1,inactive: 7.87%
21,COc1cc(OC)cc(C(=O)NCC2(N3CCOCC3)CCCCC2)c1,inactive: 1.29%

row,Compound,activation
1,COc1cccc(C(=O)N(c2cc(C)cc(C)c2)C2CCN(C(=O)OC(C)(C)C)CC2)c1,inactive: 18.5%
2,CCC(CO)(C(=O)OC1CN2CCC1CC2)c1ccccc1 (stereo not drawn),inactive: 5.09%
3,CN1CCC(Nc2ccc(Cl)cc2)CC1,inactive: 2.27%
4,CCCOc1ccc(C)cc1CN(CCCl)CCCl,inactive: -9.94%
5,CCOc1ncccc1C(=O)NCC1(N2CCOCC2)CCCCC1,inactive: 9.84%
6,CN1CCC(Nc2ccc(F)c(Cl)c2)CC1,inactive: 8.06%
7,CC(C)(C)OC(=O)N1CCC(Nc2ccccc2)CC1,inactive: -3.19%
8,O=C(O)C1(Nc2ccccc2)CCN(Cc2ccccc2)CC1,inactive: -3.61%
9,CCCOc1ccc(C(=O)NCC2(N(C)C)CCCCC2)cc1,inactive: -4.5%
10,CCOC(=O)N1CCC(Nc2ccc(C)cc2)CC1,inactive: -3.11%
11,N/C(=N\O)c1c(N)no[n+]1[O-],inactive: -17.8%
12,O=C(OC1CN2CCC1CC2)C1c2ccccc2C=Cc2ccccc21 (stereo not drawn),inactive: 2.32%
13,CCc1cc(C(=O)NCC2(N3CCCCC3)CCCCC2)sc1C,inactive: 2.18%
14,COc1cc(C(=O)NCC2(N3CCOCC3)CCCCC2)cc(OC)c1C,inactive: -1.9%
15,O=C(NCC1(N2CCOCC2)CCCCC1)c1cc(Br)ccc1Cl,inactive: 8.87%
16,COc1ccc(C(=O)NCC2(N3CCOCC3)CCCCC2)cc1OC,inactive: -0.05%
17,CN(C)C1(CNC(=O)c2cccc(C#N)c2)CCCCC1,inactive: 0.18%
18,c1ccc(CN2CCC(Nc3ccccc3)CC2)cc1,inactive: 13.3%
19,CCCN1CCC(Nc2cc(OC)cc(OC)c2)CC1,inactive: 1.81%
20,N#Cc1ccc(C(=O)NCC2(N3CCCCC3)CCCCC2)cc1,inactive: -1.71%
21,CC(C)(C)OC(=O)N1CCC(N(C(=O)c2ccccc2)c2ccc(Cl)cc2)CC1,inactive: 8.53%
